Results taken from patent EP0933350A1, “Tricyclic retinoids, methods for their production and use” (LIGAND PHARMACEUTICALS INCORPORATED, priority 1994, dated 1996).

How the values were obtained:
Format in all cases: cell-based
[1] = test system: TPA induction of ODC; assay: ornithine decarboxylase (ODC) assay: inhibition of TPA induction of ODC; details: concentration required to inhibit the TPA induction of ODC by 80 percent
[2] = test system: ME 180 cell line; assay: incorporation of 3H-thymidine (antiproliferative); details: Homo sapiens, 96 hours, radiolabeled thymidine incorporation, read-out: TdR IC50
[3] = test system: RPMI 8226 cell line; assay: incorporation of 3H-thymidine (antiproliferative); details: Homo sapiens, 96 hours, radiolabeled thymidine incorporation, read-out: TdR IC50

Which results are given for `CC1=C(/C=C/C(C)=C/C=C/C(C)=C/C(=O)O)C(C)(C)CCC1` [ATRA, all-trans retinoic acid, reference compound]?
IC80 [1]: 1.4 nM; pIC50 [2]: 6.60; pIC50 [3]: 6.99

pIC50: −log10 of the molar value.
